{"source": "paper PMC5933782", "about": "“Molecular structures of cdc2-like kinases in complex with a new inhibitor chemotype” (PLoS ONE, 2018)", "origin": "cited, not measured here", "target": "DYRK1A", "design": "method as in PMID 19837585", "conditions": "kinase binding assay; cited from earlier work", "data": [{"smiles": "CCN1/C(=C/C(C)=O)Sc2ccc(OC)cc21", "note": "[TG003]", "values": [{"measurement": "Kd", "value": 12, "unit": "nM"}]}]}
